Tested on: guinea pig trachea
Assay: In-vitro functional assay, guinea pig trachea contracted with carbachol
Details: isolated tissue, carbachol as agonist

In the case of `CCCC[N+]12CCC(CC1)[C@@H](OC(=O)C(O)(c1cccs1)C1CCC(F)(F)C1)C2.[Br-]` (stereo partly shown), the pKb is reported as “about 9.5”.

Source: US20090326004A1, “MUSCARINIC RECEPTOR ANTAGONISTS” (published 2009)
